Publication PMC3017026

Target: amyloid-β 1-42 synthetic peptide

EC50 of the loss of synaptophysin (ELISA) in mouse cortical neurons incubated 24 hours with Aβ1-42 premixed with αSN (2:1); Aβ1-42 alone 50 nM: 5 nM
Substance: recombinant human α-synuclein (from UniProt P37840 1-140) (natural protein)
